From article PMC3679522, “Scaffold nucleoporins Nup188 and Nup192 share structural and functional properties with nuclear transport receptors” (eLife, 2013)

Biological target: T1, GST-ScNSP1(1–603) (S. cerevisiae, UniProt P14907 1-603)
T1 construct: Nsp1 of S. cerevisiae, FXFG-type FG-repeat region, residues 1-603; In pGEX-2T; also called GST-NSP1(1–603); source: E. coli BL21(DE3), purified (GSH beads, eluted with glutathione, dialysed); not shown: GST, N-terminal, kept
Assay: pull-down; GST-FG fusions pre-bound to GSH beads; soluble protein (100-500 pmol) pre-mixed with 200 μg bacterial extract proteins in 0.5 ml pulldown buffer (10 mM HEPES pH 7.5, 160 mM KOAc, 1 mM MgOAc2, 1 mM DTT, 0.01% Triton X-100); 20 min, room temperature; eluted with 1 M NaCl, then SDS-sample buffer; SDS-PAGE, SYPRO Ruby
Conditions: both partners purified

B1: importin β from S. cerevisiae (ScKap95) (natural protein, UniProt Q06142 1-861, looked up)
chain: MSTAEFAQLLENSILSPDQNIRLTSETQLKKLSNDNFLQFAGLSSQVLIDENTKLEGRILAALTLKNELVSKDSVKTQQFAQRWITQVSPEAKNQIKTNALTALVSIEPRIANAAAQLIAAIADIELPHGAWPELMKIMVDNTGAEQPENVKRASLLALGYMCESADPQSQALVSSSNNILIAIVQGAQSTETSKAVRLAALNALADSLIFIKNNMEREGERNYLMQVVCEATQAEDIEVQAAAFGCLCKIMSLYYTFMKPYMEQALYALTIATMKSPNDKVASMTVEFWSTICEEEIDIAYELAQFPQSPLQSYNFALSSIKDVVPNLLNLLTRQNEDPEDDDWNVSMSAGACLQLFAQNCGNHILEPVLEFVEQNITADNWRNREAAVMAFGSIMDGPDKVQRTYYVHQALPSILNLMNDQSLQVKETTAWCIGRIADSVAESIDPQQHLPGVVQACLIGLQDHPKVATNCSWTIINLVEQLAEATPSPIYNFYPALVDGLIGAANRIDNEFNARASAFSALTTMVEYATDTVAETSASISTFVMDKLGQTMSVDENQLTLEDAQSLQELQSNILTVLAAVIRKSPSSVEPVADMLMGLFFRLLEKKDSAFIEDDVFYAISALAASLGKGFEKYLETFSPYLLKALNQVDSPVSITAVGFIADISNSLEEDFRRYSDAMMNVLAQMISNPNARRELKPAVLSVFGDIASNIGADFIPYLNDIMALCVAAQNTKPENGTLEALDYQIKVLEAVLDAYVGIVAGLHDKPEALFPYVGTIFQFIAQVAEDPQLYSEDATSRAAVGLIGDIAAMFPDGSIKQFYGQDWVIDYIKRTRSGQLFSQATKDTARWAREQQKRQLSL
notes: Kap95 (importin β) of S. cerevisiae, PCR-amplified ORF
binding result: binds
